Assay results from patent US7141573B2, “Polypharmacophoric agents” (Molecular Insight Pharmaceuticals, Inc., priority 2000, dated 2006).

Amino acid sequences for entries named in this document (tags omitted).
UniProt P31645, whole entry: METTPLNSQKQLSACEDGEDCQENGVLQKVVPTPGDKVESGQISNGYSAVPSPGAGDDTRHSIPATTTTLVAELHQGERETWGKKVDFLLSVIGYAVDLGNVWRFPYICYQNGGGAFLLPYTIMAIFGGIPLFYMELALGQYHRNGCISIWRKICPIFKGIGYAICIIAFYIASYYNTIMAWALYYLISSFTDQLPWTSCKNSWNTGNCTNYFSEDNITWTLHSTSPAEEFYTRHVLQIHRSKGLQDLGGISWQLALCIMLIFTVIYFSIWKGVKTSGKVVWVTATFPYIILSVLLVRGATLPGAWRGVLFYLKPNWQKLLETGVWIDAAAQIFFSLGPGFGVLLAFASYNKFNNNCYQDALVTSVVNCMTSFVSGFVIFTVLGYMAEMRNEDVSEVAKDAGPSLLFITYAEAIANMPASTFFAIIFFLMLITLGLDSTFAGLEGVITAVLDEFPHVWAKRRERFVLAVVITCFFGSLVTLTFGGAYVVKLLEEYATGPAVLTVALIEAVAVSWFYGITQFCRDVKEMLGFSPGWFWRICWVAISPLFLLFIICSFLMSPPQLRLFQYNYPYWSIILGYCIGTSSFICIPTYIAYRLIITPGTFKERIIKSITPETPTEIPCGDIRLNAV
UniProt Q01959, whole entry: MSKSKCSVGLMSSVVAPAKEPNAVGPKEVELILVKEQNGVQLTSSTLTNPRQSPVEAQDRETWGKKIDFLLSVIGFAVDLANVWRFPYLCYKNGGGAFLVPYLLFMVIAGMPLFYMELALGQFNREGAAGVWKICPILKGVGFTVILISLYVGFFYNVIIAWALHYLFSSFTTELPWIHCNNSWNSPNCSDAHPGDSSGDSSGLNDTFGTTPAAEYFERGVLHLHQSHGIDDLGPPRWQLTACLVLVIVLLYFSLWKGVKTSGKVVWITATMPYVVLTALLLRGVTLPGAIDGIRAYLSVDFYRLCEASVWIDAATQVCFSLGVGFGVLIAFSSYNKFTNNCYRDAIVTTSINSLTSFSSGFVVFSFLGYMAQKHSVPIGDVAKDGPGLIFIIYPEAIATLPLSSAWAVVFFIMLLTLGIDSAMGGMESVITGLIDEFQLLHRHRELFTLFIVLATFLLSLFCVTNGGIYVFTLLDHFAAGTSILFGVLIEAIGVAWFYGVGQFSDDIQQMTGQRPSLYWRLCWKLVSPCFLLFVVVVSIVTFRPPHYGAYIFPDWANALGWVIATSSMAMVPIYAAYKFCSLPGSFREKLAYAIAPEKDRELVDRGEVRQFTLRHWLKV

Tests used:
hSERT = target: T1, hSERT (Homo sapiens, UniProt P31645); experiment: [125I]RTI-55 binding in HEK hSERT membranes; settings: Table II
T1 construct: expressed in transfected cells; host or cells: HEK cells expressing hSERT

[1] = target: T2, human dopamine transporter (hDAT) (Homo sapiens, UniProt Q01959); settings: Table 1; value taken from Eshleman et al., 1999; cited from earlier work
T2 construct: expressed in transfected cells; host or cells: HEK-293 cells stably expressing recombinant hDAT

[2] = target: T2, human dopamine transporter (hDAT); experiment: [125I]RTI-55 binding to human dopamine transporter in HEK-293 hDAT membranes; settings: Table II
Protocol: To characterize drug interactions with the human dopamine transporter (hDAT), drugs (approximately 30 nM to 10 μM) were incubated with a membrane preparation from HEK-293 cells stably expressing the recombinant hDAT, [^125I]RTI-55 (34 pM), and buffer in a final volume of 250 μl. Independent assays were conducted 2 to 3 times with duplicate determinations. The Cheng-Prusoff equation was used to convert IC50 values to Ki values.

Structure (SMILES): c1ccc(CCCN2CCN(CCOC(c3ccccc3)c3ccccc3)CC2)cc1 [GBR-12935, reference compound]
- [125I]RTI-55 Binding in HEK hSERT Membranes Hill slope (hSERT): −1.47 ± 0.36
- Hill Coefficient [1]: −1.6 ± 0.8
- [125I]RTI-55 Binding in HEK hDAT Membranes Hill slope [2]: −0.44 ± 0.09
